Data from US10023562B2, “Heteroaryl substituted pyridyl compounds useful as kinase modulators” (BRISTOL-MYERS SQUIBB COMPANY, priority 2012, dated 2018).

Tested on: TLR2 induced IL-6 in peripheral blood mononuclear cells (PBMCs)
Test: PBMC TLR2 Induced IL-6 Assay
Assay type: cell-based
Conditions: Homo sapiens, 5 h, 10 μg/ml lipoteichoic acid for 5 hours, IL-6 by ELISA, values marked * are EC50, read-out: Cell EC50 (values marked *)
Description: PBMC TLR2 Induced IL-6 Assay Peripheral blood mononuclear cells (PBMCs) were isolated from human blood containing the anti-coagulant EDTA (2.5 mM) by centrifugation over a FICOLL® gradient. […] At the end of the culture, plates were centrifuged at 1800 rpm for 10 minutes to pellet the cells. Supernatants were harvested and analyzed for IL-6 levels by ELISA (BD Biosciences, San Jose, Calif.).

## Cc1cc(C#N)cnc1Nc1cc(NC(C)C)c(C(=O)NC[C@@H](F)C(C)(C)O)cn1 [Example 85]
  pEC50: 7.21

## CC(C)Nc1cc(Nc2ncc(Cl)cc2F)ncc1C(=O)NC[C@@H](F)C(C)(C)O [Example 123]
  pEC50: 7.35

pEC50: −log10 of the molar value.
